Data set [1] has as its system chorioallantoic membrane (CAM) of chick embryos. To be noted: in vivo.
For a further data set, the system named is HUVE cells. The experiment in a line: Cytotoxicity against HUVE cells. Type of data set: cell-based, human. To be noted: up to (about) 200 μM. As for the experimental part:
Human umbilical vein endothelial (HUVE) cells were purchased from Cell Systems Corp. (Kirkland, Wash.). […] Cells between passages 5 and 12 inclusive were used for all experiments. Cell numbers were determined with a Coulter counter, and cell viability was measured by trypan blue dye exclusion assay.

With neomycin, the “necrosis or visible adverse effect on the chick embryo” value in data set [1] is “no necrosis or any other visible adverse effect”. The “cytotoxicity against HUVE cells” value with HUVE cells is “no cytotoxicity”.
